## AlphaSeq binding of Ab-14 light chain variants to a spike HR2 peptide

Target: peptide PDVDLGDISGINAS, taken from heptad repeat 2 (HR2) of SARS-CoV-2 spike.

The variants keep the heavy chain, the linker and the frameworks of Ab-14 (scFv order VH, three GGGGS repeats, VL).
VH: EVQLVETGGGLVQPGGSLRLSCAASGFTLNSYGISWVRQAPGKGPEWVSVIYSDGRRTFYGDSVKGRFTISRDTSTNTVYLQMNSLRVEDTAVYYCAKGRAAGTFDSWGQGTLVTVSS
VL: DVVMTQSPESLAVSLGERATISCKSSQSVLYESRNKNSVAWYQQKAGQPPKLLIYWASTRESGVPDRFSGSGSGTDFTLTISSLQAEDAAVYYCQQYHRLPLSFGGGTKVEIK

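Phage display of a naive human antibody library on the peptide gave the parent. AAYL50 was designed without a model: most single CDR substitutions and a random sample of double and triple ones. The assay is AlphaSeq: two haploid yeast populations carry antibody and antigen on their surface. After mating in shaken culture at 30 °C for 16 h, diploids were selected and their barcode pairs sequenced. Scores were corrected for input abundance and mapped to Kd with protein pairs of known affinity run in the same pool. There are three technical replicates.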

Variants are written as CDR1, CDR2 and CDR3 of the light chain (limits as in the source). Parent: KSSQSVLYESRNKNSVA, WASTRES, QQYHRLPLS.
Numbers give log10(Kd / nM), so 0 is 1 nM and 3 is 1 µM. Smaller is tighter.
Where no diploid with the target was found in that replicate, the entry reads "n.d.": below detection, most likely a poor binder, though not proof of it.

CDR-L1,CDR-L2,CDR-L3,"log10 Kd, replicates"
KSSQSVLYESRNKNSVA,WALTRES,QQYVRLPLS,2.30 / 3.00 / 2.60
KSSQSVLYESRNKNSVA,WASMRER,QQYERLPLS,1.00 / 1.07 / 1.16
KSSQTVLYESRNKNSVA,WASTREA,QQYHRLPLQ,2.10 / 2.39 / 2.80
KSSQSVLYERRNKNSVA,WAHTRES,QQYHRLPLS,3.04 / 3.05 / n.d.
KSSQSGLYYSRNKNSVA,WASTRES,QCYHRLPLS,2.00 / n.d. / 1.99
KSSQSVLAESRNKNSVA,WWSTTES,QQYHRLPLS,n.d. / n.d. / n.d.
KSSQSVLYESRNKNSVA,WALTRES,QQYHSLPLD,4.79 / n.d. / n.d.
KSSQSVLPESRNKNSMA,WASTRES,HQYHRLPLS,n.d. / n.d. / n.d.
KSSQSVLYESRNENSVA,YASTRES,QGYHRLPLS,1.92 / 2.35 / 2.16
KSSQSSLYESRNKNSRA,WASTRES,QQYHRLPLR,n.d. / n.d. / n.d.
KSSQSVLYESRNKNSVA,WSSTRES,QQWHRLVLS,n.d. / n.d. / n.d.
WSSQSVLYESRNKNSVA,WASIRES,QQYERLPLS,2.31 / 1.71 / 2.69
KSSQSVLYESRNGNSVG,WASTRES,QQYERLPLS,5.18 / n.d. / 3.64
RSSQSVLYESRNKNSVY,WASTRES,QQYHRLPLD,n.d. / n.d. / n.d.
YSSYSVLYNSRNKNSVA,WASTRES,QQYHRLPLS,1.95 / 1.90 / 2.03
KSSQSVLKEQRNKNSVA,WASTTES,QQYHRLPLS,4.32 / 3.26 / 2.73
KGSQSVLYESRNKNHVA,WASTRES,TQYHRLPLS,3.16 / 2.63 / 2.66
KRSQSVLYESCVKNSVA,WASTRES,QQYHRLPLS,2.82 / 3.71 / n.d.
ISSQSVLYESRNVNSVA,WASGRES,QQYHRLPLS,n.d. / n.d. / 4.21
KSSQSVLYESRNKNSVA,SASTRES,QQNHRLPYS,4.67 / 2.80 / n.d.
QGSQSVLYESRNKNSVA,WASTRES,QQYHRLPMS,2.85 / 2.57 / 3.14
KSSQSVLWESRNKNSVA,WASTRES,MQYHRPPLS,5.66 / 5.48 / n.d.
KSSMSVLYESRRPNSVA,WASTRES,QQYHRLPLS,1.39 / 1.69 / 2.10
KSYQSVLLESRNKNNVA,WASTRES,QQYHRLPLS,2.62 / 2.35 / 2.33
KSSISVLYESRNKNSVA,DASTRES,QQYHRLPLS,-0.29 / 0.06 / -0.17
KSSCSVFYESRNKNSVA,WASTRES,QQYHRLNLS,6.36 / 3.40 / n.d.
KSSQSFLYEWRNKNSVQ,WASTRES,QQYHRLPLS,n.d. / 3.05 / n.d.
KSSQSVCYESRNKNSVA,DASTRES,QIYHRLPLS,0.13 / 0.49 / 0.30
KSSQSVLYEFKNKNSVA,WASTREH,QQYHRLPLS,n.d. / 4.70 / n.d.
KSAQSVLYESRNKNSVA,WASTLES,QQYHRLPLP,5.03 / n.d. / n.d.
KSSQSVLRESRNKNSVA,EASTRWS,QQYHRLPLS,0.47 / 0.70 / 0.49
KSSQSVLSESRNKNCVA,WASTRES,TQYHRLPLS,n.d. / n.d. / n.d.

Excerpt, the final 5 entries:

CDR-L1,CDR-L2,CDR-L3,"log10 Kd, replicates"
KSSQSVCYESRNKNSVA,DASTRES,QIYHRLPLS,0.13 / 0.49 / 0.30
KSSQSVLYEFKNKNSVA,WASTREH,QQYHRLPLS,n.d. / 4.70 / n.d.
KSAQSVLYESRNKNSVA,WASTLES,QQYHRLPLP,5.03 / n.d. / n.d.
KSSQSVLRESRNKNSVA,EASTRWS,QQYHRLPLS,0.47 / 0.70 / 0.49
KSSQSVLSESRNKNCVA,WASTRES,TQYHRLPLS,n.d. / n.d. / n.d.

Three control strains display no target. For library AAYL50, 18% of the pairings with them gave a signal, with a median of 4.19 and one signal in twenty below 2.99, so weak values seen in few replicates may be background.

The measurements come from Engelhart et al. 2022 (doi:10.1038/s41597-022-01779-4) through the FLAb antibody collection.